In US20250359578A1, “WATER-SOLUBLE CREATINE AGGLOMERATE” (Alzchem Trostberg GmbH, priority 2022, published 2025):

Experiment: Determination of the dissolution rate (mass of filter residue)
Assay type: physicochemical
Details: summary of Table 4, listed as finely ground creatine monohydrate
Description: The moist filter residue is dried. The mass of the filter residue serves as a measure of the dissolution rate; the lower the mass, the better the dissolution rate.

For CN(CC(=O)O)C(=N)N.O [Example 6, creatine monohydrate], the “dissolution rate (in words)” value was “high dissolution rate”.
